# Patent US10703778B2, “Cyclic peptide, affinity chromatography support, labeled antibody, antibody drug conjugate, and pharmaceutical preparation” (FUJIFILM Corporation, priority 2015, dated 2020)
# Experiment: Evaluation of plasma stability (residual rate in human plasma, mass spectrometry)
# Format: in vitro ADME
# Details: 20 minutes at room temperature, 0-minute sample = 100%
# Experimental: The stability of the cyclic peptide 5 manufactured in Example 5 in human plasma (manufactured by ProMedDX) was evaluated.
# Each of the peptides was prepared as a 5 μM aqueous solution, and 2 μL of each of the aqueous solutions was added to 20 μL of the human plasma and left to stand for 20 minutes at room temperature. After 20 minutes, 100 μL of methanol (manufactured by Wako Pure Chemical Industries, Ltd.) was added thereto such that the reaction stopped. After being stirred, the solution was subjected to centrifugation, and the supernatant was collected and named 20-minute sample. Meanwhile, 100 μL of methanol was added to 20 μL of the human plasma, 2 μL of the aqueous peptide solution was added thereto, the solution was stirred and subjected to centrifugation, and the supernatant was collected. The collected supernatant was named 0-minute sample.
# Each of the samples was quantified using a mass spectrometer TRIPLE QUAD 5500 (manufactured by AB Sciex Pte. Ltd.). By regarding the quantified value of the 0-minute sample as 100%, the quantified value of the 20-minute sample was calculated as a residual rate.
substance,measurement,value
DX^aAYHRGELVWX^bTKK [Cyclic peptide 91],rate of change in the binding amount (residual rate) in the human plasma,≤ 50%
